The target in this assay is high affinity rolipram binding form of PDE IV (HPDE IV). The experiment in a line: [3H]-rolipram binding assay (competition for high affinity site). Also noted: species or system rat. To be noted: competition with 1 nM [3H]-rolipram, 1 hour at 30° C. How it is done: Inhibition of PDE IV catalytic activity can thus be used as an index of the potency of compounds at LPDE IV.
The assay was run for 1 hour at 30° C. The reaction was terminated and bound ligand was separated from free ligand using a Brandel cell harvester. Competition for the high affinity binding site was assessed under conditions that were identical to those used for measuring low affinity PDE activity, expect that [^3H]-cAMP was not present.

As usually defined, the IC50 is the concentration that gives 50% inhibition. A higher IC50 goes with weaker potency in that assay. Compound `COc1ccc(Cc2nccc3cc(OC)c(OC)cc23)cc1OC` [Papaverine, 1-[(3,4-dimethoxyphenyl)methyl]-6,7-dimethoxyisoquinoline, reference compound] showed an IC50 of 10 µM.

The record behind these values is patent publication US20020115111A1, “Compounds” (SmithKline Beecham Corporation, priority 1994, published 2002).
